The values below come from patent US10787419B2, “Cannabinoid receptor mediating iminopyrazole compounds” (The United States of America, as represented by the …, priority 2012, dated 2020).

Chains of the proteins cited; added tags and fusions are not shown.
UniProt P47746, whole entry: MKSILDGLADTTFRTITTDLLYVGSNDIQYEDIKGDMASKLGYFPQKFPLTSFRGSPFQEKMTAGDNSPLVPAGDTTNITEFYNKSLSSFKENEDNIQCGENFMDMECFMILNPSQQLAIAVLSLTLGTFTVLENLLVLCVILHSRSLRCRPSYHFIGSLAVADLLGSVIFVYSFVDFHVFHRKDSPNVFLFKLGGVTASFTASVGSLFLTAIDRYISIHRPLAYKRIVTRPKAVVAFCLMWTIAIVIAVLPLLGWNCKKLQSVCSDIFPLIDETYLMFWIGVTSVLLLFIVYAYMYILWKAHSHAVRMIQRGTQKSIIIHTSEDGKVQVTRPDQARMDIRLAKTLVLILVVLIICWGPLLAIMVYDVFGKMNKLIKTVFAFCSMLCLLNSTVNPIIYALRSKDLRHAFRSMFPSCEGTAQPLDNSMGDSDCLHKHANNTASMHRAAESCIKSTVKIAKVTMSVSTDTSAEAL

The target of the test is CB1 (Mus musculus (Mouse), UniProt P47746). The experiment in a line: radioligand displacement assay in mouse brain membranes (Ki CB1). Type of test: binding. The note with it: read-out: Ki CB1; Table 2.

A word on the Ki: it is the dissociation constant of the complex between target and ligand, obtained from inhibition or displacement. With `CC(C)(C)C(=N)NC(=NS(=O)(=O)c1ccc(Cl)cc1)N1C[C@H](c2ccccc2)C(c2ccc(Cl)cc2)=N1`, the Ki is 3.6 nM.
